From patent EP0471298B1, “Carbamoyl-1-(pyridinylalkyl)-1H-indoles, indolines and related analogs” (priority 1990, dated 1992) come the findings set out here.

The chains behind the UniProt entries cited, without tags or fusion partners. Where a name states a change or a piece, a line headed by the entry shows the natural chain unless it says otherwise.
UniProt P37136: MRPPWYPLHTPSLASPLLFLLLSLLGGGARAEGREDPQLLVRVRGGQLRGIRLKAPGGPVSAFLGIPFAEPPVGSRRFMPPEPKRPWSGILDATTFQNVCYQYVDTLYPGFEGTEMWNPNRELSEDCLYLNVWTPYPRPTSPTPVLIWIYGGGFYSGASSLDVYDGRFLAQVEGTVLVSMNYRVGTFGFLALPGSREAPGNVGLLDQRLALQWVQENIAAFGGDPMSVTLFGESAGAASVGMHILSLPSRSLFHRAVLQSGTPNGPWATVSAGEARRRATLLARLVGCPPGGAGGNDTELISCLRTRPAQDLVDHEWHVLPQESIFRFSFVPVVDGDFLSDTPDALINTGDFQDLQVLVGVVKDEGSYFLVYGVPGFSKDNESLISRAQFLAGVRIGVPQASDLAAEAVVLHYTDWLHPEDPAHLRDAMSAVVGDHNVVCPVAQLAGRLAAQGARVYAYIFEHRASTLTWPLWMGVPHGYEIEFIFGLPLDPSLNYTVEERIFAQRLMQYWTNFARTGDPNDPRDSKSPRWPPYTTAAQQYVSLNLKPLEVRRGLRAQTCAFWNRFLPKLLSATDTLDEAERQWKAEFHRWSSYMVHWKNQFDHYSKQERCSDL

In the test the target is Acetylcholinesterase (AChE) (Rattus norvegicus, UniProt P37136). Kind of test: In vitro inhibition of acetylcholinesterase activity in rat striatum (modified Ellman method). The class given is biochemical. To be noted: read-out: Inhibitory Concentration IC₅₀; Brain acetylcholinesterase, rat striatum homogenate; preincubated 10 minutes at 37°C; acetylthiocholine 5 mM final; pH 7.2. An excerpt:
Cholinesterases are found throughout the body, both in the brain and in serum. However, only brain acetylcholinesterease (AChE) distribution is correlated with central cholinergic innervation. […] We have determined in vitro inhibition of acetylcholinesterase activity in rat striatum according to the method described below.
In Vitro Inhibition of Acetylcholinesterase Activity in Rat Striatum
The method described below was used in this invention for assaying anticholinesterase activity. This is a modification of the method of Ellman et al., Biochem. Pharmacol. 7, 88 (1961).
• A. Reagents - • 1. 0.05 M Phosphate buffer, pH 7.2 • (a) 6.85 g NaH₂PO₄·H₂O/100 mi distilled H₂O • (b) 13.40 g Na₂HPO₄·7H₂O/100 ml distilled H₂O • (c) add (a) to (b) until pH reaches 7.2 • (d) Dilute 1:10 • 2. […] If active, IC₅₀ values are determined from the inhibitory activity of subsequent concentrations. • B. Tissue Preparation - Male Wistar rats are decapitated, brains rapidly removed, corpora striata dissected free, weighed and homogenized in 19 volumes (approximately 7 mg protein/ml) of 0.05 M phosphate buffer, pH 7.2, using a Potter-Elvehjem homogenizer. […] Assay Enzyme activity is measured with the Beckman DU-50 spectrophotometer. […] This program also calculates the rate of absorbance change for each cuvette. […]

On to Physostigmine, for which the IC50 stood at 6 nM.
